High-throughput results from PubChem BioAssay.
Rows were chosen to be rich in hits. Some 2.2% of all compounds tested hit in one or more screens of this group.
FGF22 binding: binders of human FGF22 protein, primary screen, FGF22 synaptogenesis inhibitor project, biophysical, thermal shift, single point | 1.5% of 340,000 active | Fibroblast growth factor 22 (Homo sapiens), Q9HCT0 | activity (Tm shift, normalised), % at 9.99 µM | recombinant FGF22 thermal shift, SYPRO orange fluorescence; percent of sucrose octasulfate shift, DMSO zero;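 active means mean Tm shift, scaled 0 neutral to 100 positive control, at about 1.3% or above, every replicate too, limit read from the data; inconclusive means no clear call, values can overlap the other calls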
SIRT5 block: SIRT5 desuccinylase inhibitors, primary screen, biochemical, fluorescence imaging, single point, set 5. Purified SirT5, succinyl-peptide AMC, trypsin-coupled fluorescence. NAD-dependent protein deacylase sirtuin-5, mitochondrial (Homo sapiens), Q9NXA8. 1.1% of 330,000 active. inhibition, % at 15 µM. AID 652115, 2013; in the data active means inhibition above about 15%; inconclusive means no clear call, values can overlap the other calls
Yeast UUG start: yeast start codon fidelity modulation | S. cerevisiae UUG-firefly luciferase reporter, luminescence/redox ratio | activity score, % at 18.7 µM | hit rate 0.13% among 350,000 | AID 602363;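 active means replicate mean at a twofold rise or more, about +100% in these data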;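 further: firefly luciferase made from a UUG start codon reports start codon fidelity; reporter light over untreated wells divided by growth signal over untreated wells; some hits fall short of that in this replicate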
ERp5 inh: inhibitors of ERp5-driven insulin aggregation, primary screen, biochemical, turbidity, absorbance 650 nm, single point. 0.05% of 350,000 active. 90 min. inhibition, % at 9.99 µM. Protein disulfide-isomerase A6 (Homo sapiens), Q15084. AID 651711, 2012;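 active means mean replicate inhibition above about 25%, with every replicate also reaching it, limit read from the data, passing the limit was not always enough; inconclusive means only one of those two criteria met; inactive means neither criterion met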
PDI turbidity: inhibitors of human PDI, primary screen, biochemical, turbidity, single point, plate reader | Protein disulfide-isomerase (Homo sapiens), P07237 | PDI insulin aggregation turbidity, A650, 90 min | inhibition, % at 10 µM | 0.052% of 350,000 active | AID 588391, 2011;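 active means mean inhibition across replicates of 30% or more, whatever share of single replicates reach that level; inconclusive means mean inhibition below 30% while every single replicate reaches 30%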
S100A4 MyoIIA: inhibitors of S100A4-myosin IIA peptide binding, primary screen, biochemical, fluorescence polarization, TAMRA-MyoIIA peptide; Protein S100-A4 (Homo sapiens), P26447; inhibition, % at 10.7 µM; 0.14% of 360,000 active;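 active means mean inhibition of at least 70% across replicates, with every replicate also reaching that level; inconclusive means mean inhibition reaches 70% but some replicates fall short; inactive means mean inhibition below 70%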
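Material: S100A4 monomer protein / Buffer or medium: 50 mM HEPES pH 7.2, 10 mM CaCl2, 100 mM KCl / Times: 5 min incubation before reading / Benchmarks: neutral control DMSO, positive control TFP / Reagent: labelled myosin peptide probe, 5 nM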
Numbers without * were called inactive; ? = inconclusive; / = no result.

By UniProt entry, the sequences of proteins in these tests, tags left out.
Protein disulfide-isomerase (Homo sapiens), P07237, UniProt P07237, whole entry, looked up: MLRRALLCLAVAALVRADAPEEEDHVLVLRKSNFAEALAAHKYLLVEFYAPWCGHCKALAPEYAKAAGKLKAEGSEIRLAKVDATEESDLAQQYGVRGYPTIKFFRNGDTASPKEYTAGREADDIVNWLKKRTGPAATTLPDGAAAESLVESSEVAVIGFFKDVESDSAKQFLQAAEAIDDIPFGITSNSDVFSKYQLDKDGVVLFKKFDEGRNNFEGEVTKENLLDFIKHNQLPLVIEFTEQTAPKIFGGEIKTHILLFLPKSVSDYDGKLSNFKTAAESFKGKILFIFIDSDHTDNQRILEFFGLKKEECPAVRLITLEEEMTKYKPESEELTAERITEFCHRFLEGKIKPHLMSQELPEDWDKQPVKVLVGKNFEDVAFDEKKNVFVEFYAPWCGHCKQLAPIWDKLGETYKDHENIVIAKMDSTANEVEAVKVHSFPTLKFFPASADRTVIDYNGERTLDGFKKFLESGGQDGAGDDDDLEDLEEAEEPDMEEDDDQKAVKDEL

No. | Structure | FGF22 binding | SIRT5 block | Yeast UUG start
1 | Cc1ccc(C(=O)CCC(=O)OCC(=O)Nc2ccccc2SCC#N)cc1 | 0 | -2 | /
2 | CC1CCN(C(=O)COC(=O)CCC(=O)c2ccc(F)cc2)CC1 | 43* | / | -29
3 | COc1ccc(CCNC(=O)COC(=O)CCC(=O)c2ccc(F)cc2)cc1OC | 0 | 20* | /
4 | CSc1ccccc1NC(=O)COC(=O)CCC(=O)c1ccc(F)cc1 | 0 | 20* | /
5 | CCC(=O)Nc1ccc2c(c1)OC[C@@H](C)N(Cc1nccs1)C[C@H](C)[C@H](OC)CN(C)C2=O | 0 | 1 | /
6 | C[C@H](CO)N1C[C@H](C)[C@@H](CN(C)S(=O)(=O)c2ccccc2)OCCCC[C@H](C)Oc2ccc(NC(=O)Nc3ccc(F)cc3)cc2C1=O | 0 | 2 | -6
7 | Cc1noc(C)c1NC(=O)Nc1ccc2c(c1)C(=O)N([C@@H](C)CO)C[C@@H](C)[C@@H](CN(C)Cc1ccc(C(F)(F)F)cc1)OCCCC[C@@H](C)O2 | 0 | 13 | 6
8 | COC(=O)c1ccc(N)cc1O | / | / | 0

No. | ERp5 inh | PDI turbidity | S100A4 MyoIIA
1 | 3 | -7 | -7
2 | 0 | 4 | 4
3 | 3 | 7 | 3
4 | 1 | -5 | 6
5 | 0 | / | 0
6 | -12 | / | -3
7 | 8 | / | -4
8 | / | -19 | /

(next part)
No. | Structure | FGF22 binding | SIRT5 block | Yeast UUG start
9 | COC(=O)c1ccc(=O)c2nc3/c(=C/O)c(O)cc(=O)c3[nH]c12 | 0 | 20* | -16
10 | CN(Cc1nc(-c2cnccn2)no1)CC1(c2ccccc2)CC1(C)C (stereo unspecified) | 0 | -6 | 14
11 | CN(Cc1nc(-c2cnccn2)no1)C1CC(C)(C)NC(C)(C)C1 | 43* | -3 | /
12 | O=C(Nc1ccccc1Cl)c1sccc1-c1ccccc1 | 0 | 79* | 2
13 | COc1ccccc1S(=O)(=O)N[C@H]1C=C[C@@H](CC(=O)NCc2cccc(F)c2)O[C@H]1CO | 0 | 0 | -6
14 | CCNC(=O)C[C@@H]1CC[C@H]2[C@H](COc3ccc(NC(=O)c4cccc(C(F)(F)F)c4)cc3C(=O)N2C)O1 | 0 | / | 15
15 | O=C(O)CCCN1C(=O)c2ccc(Oc3cccc([N+](=O)[O-])c3)cc2C1=O | 0 | 1 | 6
16 | O=C(O)CCCN1C(=O)c2ccc(C(=O)c3cccc([N+](=O)[O-])c3)cc2C1=O | 43* | 0 | -11

No. | ERp5 inh | PDI turbidity | S100A4 MyoIIA
9 | 5 | / | -16
10 | -4 | 6 | -7
11 | -11 | -1 | 1
12 | 2 | 5 | -4
13 | 1 | / | 3
14 | / | / | /
15 | 3 | 0 | -6
16 | -4 | -3 | -2

Further results follow:
No. | Structure | FGF22 binding | SIRT5 block | Yeast UUG start
17 | C[C@@H]1CCCCO[C@@H](CN(C)S(=O)(=O)c2ccc(F)cc2)[C@@H](C)CN([C@@H](C)CO)C(=O)c2cc(NC(=O)CCC(F)(F)F)ccc2O1 | 0 | 4 | 13
18 | C[C@H]1CN([C@@H](C)CO)C(=O)Cc2cc(NS(=O)(=O)c3cccs3)ccc2O[C@@H]1CN(C)C | 0 | 0 | 23
19 | Cc1ccc(Nc2n[nH]c(=S)s2)cc1F | 46* | -3 | /
20 | CCOC=C1C(=O)N(C(C)=O)c2cc(OC)c(OC)cc21 | 43* | / | -13
21 | C[C@@H]1CCCCO[C@H](CN(C)S(=O)(=O)c2ccc(F)cc2)[C@H](C)CN([C@H](C)CO)C(=O)c2cc(NC(=O)C3CCCCC3)ccc2O1 | / | 4 | 4
22 | O=C(O)C[C@@H]1CC[C@@H](NC(=O)Nc2ccccc2)[C@@H](CO)O1 | 1 | 2 | -3
23 | CCOC(=O)c1[nH]ncc1CN1CCCC(C(=O)c2cccc(OC(C)C)c2)C1 (stereo unspecified) | / | / | -9
24 | COc1ccc(-c2[nH]ncc2CN2CCCC(C(=O)c3cccc(OC)c3)C2)cc1 (stereo unspecified) | 0 | 18* | -10

No. | ERp5 inh | PDI turbidity | S100A4 MyoIIA
17 | -7 | / | 4
18 | -1 | / | 1
19 | 2 | -4 | 5
20 | 8 | -2 | 0
21 | 1 | / | -3
22 | -2 | / | -4
23 | / | -12 | /
24 | 3 | 3 | -3

New compounds follow
No. | Structure | FGF22 binding | SIRT5 block | Yeast UUG start
25 | COc1ccc(C(=O)C2CCCN(Cc3cn[nH]c3-c3ccccc3)C2)cc1OC (stereo unspecified) | 0 | 29* | -7
26 | Oc1c(CN2CCN(c3ccccn3)CC2)cc(Cl)c2cccnc12 | / | / | /
27 | O=c1c(CN2CCN(c3ccccn3)CC2)coc2ccccc12 | 44* | 1 | /
28 | CC(C)(C)N1CC(C(=O)Nc2ccc(C(N)=O)cc2)CC1=O (stereo unspecified) | 44* | / | -25
29 | COCCNC(=O)Cc1ccc(Br)cc1 | / | / | -13
30 | CCCCNC(=O)Cc1ccc(Br)cc1 | 44* | 0 | /
31 | O=C(CSc1n[nH]c(=O)[nH]c1=O)NC1CC1 | 44* | -2 | /
32 | CC(C)(C)C(=O)CSc1ncnc2c1cnn2Cc1ccccc1 | 0 | 15* | /

No. | ERp5 inh | PDI turbidity | S100A4 MyoIIA
25 | -5 | -1 | 0
26 | / | 1 | /
27 | -5 | -7 | 7
28 | 5 | -5 | 0
29 | / | -5 | /
30 | -3 | -16 | -1
31 | -6 | 4 | 1
32 | 6 | 9 | 2

(further entries)
No. | Structure | FGF22 binding | SIRT5 block | Yeast UUG start
33 | COC(=O)CSc1ncnc2c1cnn2Cc1ccccc1 | / | / | -11
34 | COc1ccc(C(=O)c2c(C)c3cc(C)ccc3n2CC(O)CN2CCOCC2)cc1 (stereo unspecified) | 44* | 10 | /
35 | Cc1noc(C)c1COC(=O)C(c1ccccc1)c1ccccc1 | 0 | 16* | /
36 | CS(=O)(=O)Nc1ccc2c(c1)[C@@H]1C[C@H](CC(=O)NCc3ccc(-c4ccccc4)cc3)O[C@@H](CO)[C@@H]1O2 | 0 | / | -2
37 | Cc1ccc(C)n1-c1ccc(C(=O)NCc2ccncc2)cc1 | 44* | -7 | /
38 | CCOc1ccc(C(=O)NCc2ccncc2)cc1 | / | / | -21
39 | COc1cc(C(=O)NCc2ccncc2)cc(OC)c1OC | 43* | -4 | /
40 | O=C(NCc1ccncc1)c1ccc(Cl)c(S(=O)(=O)N2CCCCC2)c1 | 0 | 18* | /

No. | ERp5 inh | PDI turbidity | S100A4 MyoIIA
33 | / | -10 | /
34 | 3 | ? | -17
35 | -3 | 1 | -9
36 | / | / | /
37 | 5 | 3 | -13
38 | / | 10 | /
39 | -1 | 3 | -4
40 | -6 | 0 | 1

Part of the list above in order of heavy-atom count, high to low.
No. | Structure | FGF22 binding | SIRT5 block | Yeast UUG start
40 | O=C(NCc1ccncc1)c1ccc(Cl)c(S(=O)(=O)N2CCCCC2)c1 | 0 | 18* | /
35 | Cc1noc(C)c1COC(=O)C(c1ccccc1)c1ccccc1 | 0 | 16* | /
37 | Cc1ccc(C)n1-c1ccc(C(=O)NCc2ccncc2)cc1 | 44* | -7 | /
39 | COc1cc(C(=O)NCc2ccncc2)cc(OC)c1OC | 43* | -4 | /

No. | ERp5 inh | PDI turbidity | S100A4 MyoIIA
40 | -6 | 0 | 1
35 | -3 | 1 | -9
37 | 5 | 3 | -13
39 | -1 | 3 | -4

(listing goes on)
No. | Structure | FGF22 binding | SIRT5 block | Yeast UUG start
41 | CN1C(=O)c2cc(NC(=O)Nc3ccccc3)ccc2OC[C@H]2O[C@H](CC(=O)O)CC[C@H]21 | 0 | -4 | /
42 | CCC(=O)N1C[C@@H](O)COC[C@H]2O[C@@H](CC(=O)NCc3cc(F)cc(F)c3)CC[C@@H]21 | 0 | 2 | 7
43 | O=C(NCc1ccc(F)cc1)[C@@H]1[C@@H](CO)[C@@H]2Cn3c(cccc3=O)[C@H]1N2 | 0 | 0 | /
44 | CC(C)N(Cc1cnn(C)c1)C(=O)c1ccc(OC2CCN(Cc3ccccn3)CC2)cc1 | 0 | 17* | -6

No. | ERp5 inh | PDI turbidity | S100A4 MyoIIA
41 | / | / | /
42 | -1 | / | -7
43 | 2 | / | -22
44 | -2 | -1 | -2
